Patent US20150044245A1, “PARTIAL MHC CONSTRUCTS AND METHODS OF USE” (Oregon Health & Science University, priority 2012, published 2015)

Target: CD74 (MHC class II invariant chain) of DR*1501-Tg mouse splenocytes and monocytes (mouse) (UniProt P04441)
Assay: direct saturation binding of FITC-labeled construct to CD74 immuno-adsorbed on Protein L/ln-1 beads; SDS-PAGE densitometry; one-site fit

Kd: 4.47 nM
Substance: RTL1000 (pDR2/hMOG-35-55) (peptide-MHC)
